Literature values, collected in publication PMC7215941.

Amino acid sequences for entries named in this document (tags omitted). Residues count along the entry.
UniProt P42081, 24-247: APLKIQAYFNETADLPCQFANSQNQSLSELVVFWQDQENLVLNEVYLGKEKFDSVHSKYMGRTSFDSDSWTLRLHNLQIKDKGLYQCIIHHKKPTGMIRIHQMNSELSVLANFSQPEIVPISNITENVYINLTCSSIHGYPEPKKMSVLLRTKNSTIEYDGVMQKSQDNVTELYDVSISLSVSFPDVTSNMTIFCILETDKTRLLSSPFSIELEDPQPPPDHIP

Assays:
CD86 (Homo sapiens) = CD86 (Homo sapiens) (UniProt P42081)
CD80 (Homo sapiens) = CD80 (Homo sapiens) (UniProt P33681)

Kd (CD86 (Homo sapiens)): 12 nM
Kd (CD80 (Homo sapiens)): 12 nM
Substance: CTLA4 (from UniProt P16410)
